Test results from article PMC6426982, “Anti-alcohol abuse drug disulfiram inhibits human PHGDH via disruption of its active tetrameric form through a specific cysteine oxidation” (Scientific Reports, 2019).

By UniProt entry, the sequences of proteins in these tests, tags left out.
UniProt O43175, whole entry: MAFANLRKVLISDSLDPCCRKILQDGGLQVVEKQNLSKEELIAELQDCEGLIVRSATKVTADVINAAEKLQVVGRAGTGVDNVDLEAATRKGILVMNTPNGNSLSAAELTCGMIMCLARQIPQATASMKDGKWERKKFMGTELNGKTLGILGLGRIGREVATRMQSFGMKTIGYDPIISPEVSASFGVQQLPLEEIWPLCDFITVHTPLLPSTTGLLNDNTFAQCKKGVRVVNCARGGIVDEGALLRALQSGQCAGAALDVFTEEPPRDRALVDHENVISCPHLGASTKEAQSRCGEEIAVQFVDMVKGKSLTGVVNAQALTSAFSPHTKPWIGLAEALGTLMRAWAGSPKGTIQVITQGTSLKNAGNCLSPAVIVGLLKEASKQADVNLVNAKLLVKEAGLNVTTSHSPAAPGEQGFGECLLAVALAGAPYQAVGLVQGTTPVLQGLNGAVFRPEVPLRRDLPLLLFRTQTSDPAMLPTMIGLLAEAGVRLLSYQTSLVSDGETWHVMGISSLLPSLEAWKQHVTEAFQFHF

Molecular target: human PHGDH (wild type) (Homo sapiens, UniProt O43175)
Assay: PHGDH isolated enzyme inhibition assay (NADH fluorescence), wild type
Details: SAR statement on Table 1

PHGDH inhibition compared to the parent compound DSF: only weakly or inactive
SMILES: CCN(CC)C(=S)SCSC(=S)N(CC)CC
